In patent US10118965B2, “Compositions and methods related to anti-EGFR antibody drug conjugates” (LegoChem Biosciences, Inc., priority 2015, dated 2018):

Key:
HCC-827 cells = assay: In vitro cytotoxicity, SRB assay, HCC-827 cells; format: cell-based; settings: HCC-827 (EGFR Intermediate: del E746_A750), 72 hours
Experimental: (§1) A431 cells, which express high levels of EGFR, and MCF-7 cells, which express low levels of EGFR, were plated at about 1000 cells per well in a 96-well plate in 100 μL of media. HCC-827 cells, which express an intermediate level of EGFR were plated at about 500 cells per well in a 96-well plate in 100 μL of media. The cells were incubated at 37° C. in 5% CO2 for 24 hours. […] The cells were incubated for 72 hours and then fixed for 1 hour at 4° C. after adding 100 μL of ice-cold 10% tricholoracetic acid to each well. Viable cells were counted using SRB dye (Sulphorhodamine, Sigma S 1402) and a Molecular Devices SpectraMax 190 plate reader running Softmax Pro v5, monitoring absorbance at 540 nm (FIG. 12).

MCF-7 cells = assay: In vitro cytotoxicity, SRB assay, MCF-7 cells; format: cell-based; settings: MCF7 (EGFR low), 72 hours
Experimental: as §1

[1] = Pharmacokinetics in male Sprague Dawley rats (LC/MS/MS); format: in vivo; settings: rat, intravenously, 3 mg/kg
[2] = recalculated excluding the value measured at day 1

Work on Erbitux(LC)-G7CVIM yielded an IC50 (HCC-827 cells) of over 100 nM and an IC50 (MCF-7 cells) of over 100 nM.
For cetuximab [Erbitux], the “Alpha HL” value [1] was 0.19 ± 0.10 days, the “Beta HL” value [1] was 8.21 ± 0.99 days and the V1 [1] was 0.04019 ± 0.00292 L/kg. For the same substance, the “Beta HL” value [1, 2] was 7.41 ± 0.51 days, the V1 [1, 2] was 0.04114 ± 0.00181 L/kg and the IC50 (HCC-827 cells) was over 100 nM.
